Assay results from ChEMBL document CHEMBL3046441, “Importance of physicochemical properties for the design of new pesticides” (J Agric Food Chem, 2011).

Experiment: Dissociation constant, pKa of the compound at pH 7.3
Format: physicochemical

- pKa: 0
Structure (SMILES): COc1cc(Cc2cnc(N)nc2N)cc(OC)c1OC [TRIMETHOPRIM]
